The record followed here is patent publication US11352392B2, “Artificially synthesized peptide H-473 and use thereof” (CHINA WEST NORMAL UNIVERSITY, priority 2018, dated 2022).

For one assay, the system named is cfpac-1 xenograft tumors. The assay can be described thus: Pharmacodynamic experiment on cfpac-1 xenograft tumor in nude mice. The following applies: cfpac-1 xenograft nude mice, H-473 1 μg/kg or Interleukin-2 200,000 IU/kg, tail vein, once a day for 10 times. Type of assay: in vivo, BALB/c nude mice. As to the method: (§1) Model control group: physiological saline, 0.1 ml/10 g, once a day for 10 times.
(§2) Interleukin-2: 20,000 IU/ml interleukin-2 solution, injected into tail vein, 0.1 ml/10 g, once a day for 10 times.
Peptide H-473-1 μg/kg group: 0.1 μg/ml peptide H-473 solution, injected into the tail vein, 0.1 ml/10 g, once a day for 10 times.
The cultured cfpac-1 cell suspension was collected at a concentration of 1×10^7 cells/ml and inoculated subcutaneously in the right axilla of nude mice, 0.1 ml/mouse.
Diameters of the xenograft tumors in nude mice were measured with a vernier caliper. 17 days after inoculation, the animals were randomized into groups with 8 in each group when the tumors grew to 100-150 mm^3. […]
(§3) Tumor volume (TV) was calculated according to the following formula: TV=½×a×b^2, wherein, a and b represent length and width, respectively.
(§4) Relative tumor volume (RTV) was calculated according to the measured results according to the following formula: RTV=Vt/V0, wherein, V0 is tumor volume measured when the animals are divided into cages and dosed (i.e., d0) and Vt is tumor volume at each measurement.
(§5) Evaluation indicator of anti-tumor activity: relative tumor proliferation rate T/C (%) was calculated according to the following formula: […]
(§6) Evaluation indicator of antitumor activity: tumor growth inhibition rate (%) was calculated according to the following formula: […]

In the next assay the test system is MGC-803 xenograft tumors. As to the kind of experiment: Pharmacodynamic experiment on human gastric cancer MGC-803 xenograft tumor in nude mice. The class given is in vivo, BALB/c nude mice. The following applies: MGC-803 xenograft nude mice, H-473 1 μg/kg or Interleukin-2 200,000 IU/kg, tail vein, once a day for 10 times. As to the method: as §1, §2
Peptide H-473-1μg/kg group: 0.1 μg/ml peptide H-473 solution, injected into the tail vein, 0.1 ml/10 g, once a day for 10 times.
The cultured MGC-803 cell suspension was collected at a concentration of 1×10^7 cells/ml and inoculated subcutaneously in the right axilla of nude mice, 0.1 ml/mouse.
Diameters of the xenograft tumors in nude mice were measured with a vernier caliper. 8 days after inoculation, the animals were randomized into groups with 8 in each group when the tumors grew to 100-150 mm^3. At the same time, each group of nude mice began to be dosed. The dosage regimen can be found in “Groups and dosage regimen”. The anti-tumor effect of the test sample was dynamically observed by using a method of measuring tumor diameter. 10 days after dosing, observation was continued for 4 days, and then the nude mice were sacrificed, and tumor mass was surgically removed and weighed.
as §3, §4, §5, §6
Mean values were expressed as X±SD, inter-group analysis was statistically processed using t-test, and results were statistically analyzed using SPSS (Staffstical Package for the Social Science) 17.0.
(In xenograft studies the graft and the host belong to different species.)

For Interleukin-2, the Tumor inhibition rate with cfpac-1 xenograft tumors is reported as 56.1%; in the assay on cfpac-1 xenograft tumors (listed as IL-2), 68.04%; in the assay with MGC-803 xenograft tumors it was 60.9%; with MGC-803 xenograft tumors (listed as IL-2), 60.9%. Moreover, in the assay with MGC-803 xenograft tumors, the Tumor weight came to 1.023 ± 0.121 g.
